From PMC8011926 (Journal of Medicinal Chemistry, 2020)

Key:
[1] = target: T1, NOP receptor (NOP-RLuc/β-arrestin 2-RGFP) (Homo sapiens, UniProt P41146); test: NOP/β-arrestin 2 interaction, BRET assay in whole cells; type: cell-based; details: Emax of ligand / Emax of N/OFQ(1–13)-NH2; mean ± sem of five experiments in duplicate
T1 construct: expressed in transfected cells; host or cells: HEK293 (whole cells)
Protocol: (§1) For this study, human embryonic kidney (HEK293) cells, permanently co-expressing the different pairs of fusion proteins NOP-RLuc/Gβ1-RGFP and NOP-RLuc/β-arrestin 2-RGFP, and SH-SY5Y cells stably, co-expressing the different pairs of fusion proteins mu-RLuc/Gβ1-RGFP and mu-RLuc/β-arrestin 2-RGFP or delta-RLuc/Gβ1-RGFP and delta-RLuc/β-arrestin 2-RGFP, were used. Cells were prepared and cultured, as described previously.[19],[23] Cells were grown in Dulbecco’s modified Eagle’s medium (DMEM)/HAMS F12 (1:1) supplemented with 10% fetal bovine serum, penicillin G (100 units/mL), streptomycin (100 μg mL^–1), L-glutamine (2 mM), fungizone (1 μg mL^–1), geneticin (G418; 200 μg mL^–1), and hygromycin B (100 μg mL^–1) in a humidified atmosphere of 5% CO2 at 37 °C. For G protein experiments, enriched plasma membrane aliquots from transfected cells were prepared by differential centrifugation; cells were detached with phosphate buffered saline (PBS)/EDTA solution (1 mM, pH 7.4 NaOH), then, after 5 min 500g centrifugation, Dounce-homogenized (30 strokes) in cold homogenization buffer (tris(hydroxymethyl)aminomethane 5 mM, EGTA 1 mM, DTT 1 mM, pH 7.4 HCl) in the presence of sucrose (0.32 M). Three following centrifugations were performed at 10 min 1000g (4 °C), and the supernatants were kept. Two 20 min 24,000g (4 °C) subsequent centrifugations (the second in the absence of sucrose) were performed for separating enriched membranes that, after discarding the supernatant, were kept in ultrapure water at −80 °C.[67] The protein concentration in membrane preparations was determined using the QPRO-BCA kit (Cyanagen Srl, Bologna, IT) and the Ensight (PerkinElmer, Waltham, USA) in the spectrophotometer mode.
Luminescence in membranes was recorded in 96-well untreated white opaque microplates, while in whole cells, it was recorded in 96-well sterile poly-D-lysine-coated white opaque microplates (PerkinElmer, Waltham, MA, USA) using the luminometer Victor 2030 (PerkinElmer, Waltham, MA, USA). For the determination of receptor/G protein interactions, membranes (3 μg of protein) prepared from cells co-expressing NOP (or mu or delta)/RLuc and Gβ1/RGFP were added to wells in DPBS. For the determination of receptor/β-arrestin 2 interactions, cells co-expressing NOP (or mu or delta)/RLuc and β-arrestin 2/RGFP were plated 24 h before the experiment in poly-D-lysine-treated plates (100,000 cells/well). The cells were prepared for the experiment substituting the medium with PBS with MgCl2 (0.5 mM) and CaCl2 (0.9 mM). Coelenterazine at a final concentration of 5 μM was injected 15 min prior to reading the cell plate. Different concentrations of ligands in 20 μL of PBS–BSA 0.01% were added and incubated 5 min before reading luminescence. […] The BRET ratio was measured 15 min after agonist injection. […]
(§2) The pharmacological terminology adopted in this paper is consistent with IUPHAR recommendations.[68] All data are expressed as the mean ± sem of five independent experiments made in duplicate. […] Ligand efficacy was expressed as intrinsic activity (α), calculated as the ratio between the Emax of the ligand and that of the standard agonist. Count per second (CPS) measured for the RGFP and RLuc light emitted using 510(10) and 460(25) filters (PerkinElmer, Waltham, MA), respectively, was used to calculate the BRET ratio. All data are expressed as the stimulated BRET ratio, that is, the ratio between CPS from RGFP and RLuc in the presence of ligands minus the BRET ratio in vehicle-treated wells. […]

[2] = test system: NOP receptor; test: NOP bias factor, G protein vs β-arrestin 2 (Black–Leff operational model); details: ΔΔlog(τ/KA) G protein minus β-arrestin 2; N/OFQ(1–13)-NH2 as standard unbiased ligand; positive = toward G protein; mean of at least five experiments
Description: The concentration–response curves of each compound were fitted to the Black–Leff operational model, described by Nagi and Pineyro[70] [drawing 3] where [A] is the agonist concentration, the maximal response of the system is given by Em, n is a fitting parameter for the slope, the affinity of the agonist is represented by the equilibrium dissociation constant of the agonist–receptor complex (KA), and the efficacy of the agonist is defined by τ. τ and KA are descriptive parameters of intrinsic efficacy and binding affinity and may be directly obtained by fitting the experimental data to the operational equation and can be expressed as “transduction coefficients” log(τ/KA). The relative efficiency of agonists producing activation of any pathways can thus be quantified with a “normalized” transduction coefficient, namely Δlog(τ/KA). Finally, the bias factors were calculated as difference between Δlog(τ/KA) values for a given agonist between the pathways (G protein and β-arrestin 2) [drawing 4]
Bias factors are expressed as the mean of at least five independent experiments, and CL95% are indicated. […]

[3] = target: T2, NOP receptor (NOP-RLuc/Gβ1-RGFP) (Homo sapiens, UniProt P41146); test: NOP/G protein interaction, BRET assay in membranes; type: biochemical; details: Emax of ligand / Emax of N/OFQ(1–13)-NH2; mean ± sem of five experiments in duplicate
T2 construct: expressed in transfected cells; host or cells: HEK293 (enriched plasma membranes)
Protocol: as §1, with “Two 20 min 24,000g (4 °C) subsequent centrifugations (the second in the absence of sucrose) were performed for separating enriched membranes that, after discarding the supernatant, were kept in ultrapure water at −80 °C.[67]” left out
Luminescence in membranes was recorded in 96-well untreated white opaque microplates, while in whole cells, it was recorded in 96-well sterile poly-D-lysine-coated white opaque microplates (PerkinElmer, Waltham, MA, USA) using the luminometer Victor 2030 (PerkinElmer, Waltham, MA, USA). […] Coelenterazine at a final concentration of 5 μM was injected 15 min prior to reading the cell plate. Different concentrations of ligands in 20 μL of PBS–BSA 0.01% were added and incubated 5 min before reading luminescence. […] The BRET ratio was measured 15 min after agonist injection. […]
as §2

Molecule	NOP/β-arrestin 2 α ± sem (intrinsic activity) [1]	bias factor (CL95%), NOP [2]	NOP/G protein α ± sem (intrinsic activity) [3]
[AC5C^7]N/OFQ-NH2 (FGGFTG; AC5C at 7; C-terminal amide) [Compound 37]	1.02 ± 0.03		
[Aib^7]N/OFQ-NH2 (FGGFTG; Aib at 7; C-terminal amide) [Compound 34]	0.98 ± 0.05	0.46 (−0.08–1.01)	
[AC5C^11]N/OFQ-NH2 (FGGFTGARKS; AC5C at 11; C-terminal amide) [Compound 38]	1.05 ± 0.03		1.09 ± 0.04
[AC3C^7]N/OFQ-NH2 (FGGFTG; AC3C at 7; C-terminal amide) [Compound 36]	1.01 ± 0.04		
C[C@H](NC(=O)CNC(=O)[C@@H](NC(=O)[C@H](Cc1ccccc1)NC(=O)CNC(=O)CNC(=O)[C@@H](N)CC1CCCCC1)[C@@H](C)O)C(=O)N[C@@H](CCCNC(=N)N)C(=O)N[C@@H](CCCCN)C(=O)N[C@@H](CO)C(=O)N[C@@H](C)C(=O)N[C@@H](CCCNC(=N)N)C(=O)N[C@@H](CCCCN)C(N)=O [Compound 22, [Cha^1]N/OFQ(1–13)-NH2]			1.08 ± 0.04
[Aib^11]N/OFQ-NH2 (FGGFTGARKS; Aib at 11; C-terminal amide) [Compound 35]	0.95 ± 0.03		1.07 ± 0.03
C[C@H](NC(=O)CNC(=O)[C@@H](NC(=O)[C@H](Cc1c[nH]c2ccccc12)NC(=O)CNC(=O)CNC(=O)[C@@H](N)Cc1ccccc1)[C@@H](C)O)C(=O)N[C@@H](CCCNC(=N)N)C(=O)N[C@@H](CCCCN)C(=O)N[C@@H](CO)C(=O)N[C@@H](C)C(=O)N[C@@H](CCCNC(=N)N)C(=O)N[C@@H](CCCCN)C(N)=O [Compound 24, [Trp^4]N/OFQ(1–13)-NH2]			1.01 ± 0.01
